Laboratory results: patent publication US20060172418A1, “Hypercoiling polymers and their use in cellular delivery” (priority 2002, published 2006)
Like-named read-outs stand apart in the source and are kept apart here.

How the values were obtained:
MCF7 cells = settings: 5 days
Procedure: (§1) Subsequently, a standard MTT (3-(4,5-dimethylthiazol-2-yl)-2,5-diphenyl-2H-tetrazolium bromide) assay was performed in order to assess cell viability.
(§2) The total DMSO concentration was adjusted to 1% by volume, and the cells incubated at 37° C. under a 5% CO2 atmosphere for 5 days. […] Subsequently, a standard MTT assay was performed in order to assess cell viability.

MCF7/MXR cells = settings: 5 days
Procedure: as §1, §2

Measured: cytotoxic effect

poly(lysine iso-phthalamide-co-lysine DOX iso-phthalamide) [polymer-conjugated doxorubicin]
significant cytotoxic effects: MCF7 cells; 1% by volume of DMSO | MCF7 cells; without DMSO | MCF7/MXR cells; 1% by volume of DMSO | MCF7/MXR cells; without DMSO
